Source: patent US20150099800A1, “NOVEL LIPASE INHIBITORS, REPORTER SUBSTRATES AND USES THEREOF” (Northeastern University, priority 2012, published 2015)

Chains of the proteins cited; added tags and fusions are not shown.
UniProt P00591, whole entry: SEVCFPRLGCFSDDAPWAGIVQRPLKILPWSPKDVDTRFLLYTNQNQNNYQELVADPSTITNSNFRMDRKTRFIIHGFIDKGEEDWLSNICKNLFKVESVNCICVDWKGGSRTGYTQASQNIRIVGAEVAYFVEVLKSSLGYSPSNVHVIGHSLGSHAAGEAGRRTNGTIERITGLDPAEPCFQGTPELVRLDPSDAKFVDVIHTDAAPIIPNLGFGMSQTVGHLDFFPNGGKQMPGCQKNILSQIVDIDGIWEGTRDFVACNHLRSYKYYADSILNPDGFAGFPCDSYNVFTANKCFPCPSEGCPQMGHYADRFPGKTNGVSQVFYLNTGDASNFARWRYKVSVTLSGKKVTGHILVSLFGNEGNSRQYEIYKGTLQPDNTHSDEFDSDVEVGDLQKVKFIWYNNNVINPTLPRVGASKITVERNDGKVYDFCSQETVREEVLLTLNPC
UniProt Q99685, whole entry: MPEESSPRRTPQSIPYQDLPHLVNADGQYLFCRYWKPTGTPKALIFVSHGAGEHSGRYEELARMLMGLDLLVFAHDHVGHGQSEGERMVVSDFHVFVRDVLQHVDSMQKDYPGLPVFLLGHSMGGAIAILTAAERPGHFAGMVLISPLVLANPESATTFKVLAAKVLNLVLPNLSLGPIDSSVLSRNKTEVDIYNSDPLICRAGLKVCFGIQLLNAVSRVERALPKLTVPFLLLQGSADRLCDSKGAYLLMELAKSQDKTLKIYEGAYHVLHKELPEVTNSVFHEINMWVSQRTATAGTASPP
UniProt Q9Y4D2, whole entry: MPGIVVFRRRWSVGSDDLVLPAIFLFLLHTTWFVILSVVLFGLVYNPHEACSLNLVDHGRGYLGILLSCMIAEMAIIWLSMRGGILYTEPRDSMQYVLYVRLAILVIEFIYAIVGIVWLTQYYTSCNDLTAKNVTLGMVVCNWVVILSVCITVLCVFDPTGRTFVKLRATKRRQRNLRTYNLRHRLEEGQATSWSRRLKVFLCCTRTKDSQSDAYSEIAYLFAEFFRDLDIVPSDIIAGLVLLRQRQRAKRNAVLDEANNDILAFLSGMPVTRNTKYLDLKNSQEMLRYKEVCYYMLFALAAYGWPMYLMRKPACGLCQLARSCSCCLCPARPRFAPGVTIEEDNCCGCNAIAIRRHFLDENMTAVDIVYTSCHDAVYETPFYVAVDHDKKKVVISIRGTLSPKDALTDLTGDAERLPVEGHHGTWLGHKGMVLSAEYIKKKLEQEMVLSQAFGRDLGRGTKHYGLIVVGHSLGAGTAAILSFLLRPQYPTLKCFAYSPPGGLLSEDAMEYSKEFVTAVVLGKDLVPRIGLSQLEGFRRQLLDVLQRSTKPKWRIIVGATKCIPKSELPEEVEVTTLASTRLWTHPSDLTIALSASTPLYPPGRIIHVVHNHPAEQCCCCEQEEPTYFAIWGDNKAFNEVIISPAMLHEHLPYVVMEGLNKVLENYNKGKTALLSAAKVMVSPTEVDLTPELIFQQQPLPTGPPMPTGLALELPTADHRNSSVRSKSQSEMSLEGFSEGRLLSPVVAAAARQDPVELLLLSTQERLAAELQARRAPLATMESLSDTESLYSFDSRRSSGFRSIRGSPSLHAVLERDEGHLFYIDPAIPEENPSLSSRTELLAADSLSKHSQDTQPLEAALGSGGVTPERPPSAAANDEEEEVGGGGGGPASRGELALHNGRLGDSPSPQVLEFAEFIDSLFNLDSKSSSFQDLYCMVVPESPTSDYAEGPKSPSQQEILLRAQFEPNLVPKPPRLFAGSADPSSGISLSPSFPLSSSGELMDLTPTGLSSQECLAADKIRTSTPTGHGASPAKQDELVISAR

Columns and labels:
[1] = test system: Lipoprotein Lipase (Bacterial); test: In vitro FRET-based assay with reporter compound (17), lipoprotein lipase; type: biochemical, Pseudomonas sp.
[2] = biological target: Pancreatic Lipase (Porcine) (Sus scrofa, UniProt P00591); test: In vitro FRET-based assay with reporter compound (17), pancreatic lipase; type: biochemical
[3] = test system: cannabinoid receptors; test: Cannabinoid receptor binding (Example 6)
[4] = test system: DAGL; settings: cited from earlier work
[5] = test system: FAAH; settings: cited from earlier work
[6] = biological target: MAGL (Homo sapiens, UniProt Q99685); settings: cited from earlier work
[7] = biological target: hDAGLα (Homo sapiens, UniProt Q9Y4D2); test: Radio-TLC assay of DAGL inhibition with [14C]SAG substrate, hDAGLα

## O=C(NCCCCCCNC(=O)ON=C1CCCCC1)ON=C1CCCCC1
[1]
  Lipoprotein Lipase (Bacterial) inhibition at 10 μM (%): <0%
[2]
  Pancreatic Lipase (Porcine) inhibition at 10 μM (%): 78%
[3]
  binding to the cannabinoid receptors: did not bind
[4]
  effect on DAGL activity reported in the literature: poor inhibitors
[5]
  inhibition of FAAH activity reported in the literature: poor inhibitors
[6]
  inhibition of MAGL activity reported in the literature: poor inhibitors
[7]
  inhibition of hDAGLα in radio-TLC assays: poor inhibitors
